The results in this text go back to ChEMBL document CHEMBL4130348, “Structure-activity relationship investigation for benzonaphthyridinone derivatives as novel potent Bruton's tyrosine kinase (BTK) irreversible inhibitors” (Eur J Med Chem, 2017).

Protein sequences, listed by entry. Tags and fused reporters are not part of them. Lines headed by an entry give the natural chain unless they say otherwise; changes in a name come on top.
UniProt Q06187: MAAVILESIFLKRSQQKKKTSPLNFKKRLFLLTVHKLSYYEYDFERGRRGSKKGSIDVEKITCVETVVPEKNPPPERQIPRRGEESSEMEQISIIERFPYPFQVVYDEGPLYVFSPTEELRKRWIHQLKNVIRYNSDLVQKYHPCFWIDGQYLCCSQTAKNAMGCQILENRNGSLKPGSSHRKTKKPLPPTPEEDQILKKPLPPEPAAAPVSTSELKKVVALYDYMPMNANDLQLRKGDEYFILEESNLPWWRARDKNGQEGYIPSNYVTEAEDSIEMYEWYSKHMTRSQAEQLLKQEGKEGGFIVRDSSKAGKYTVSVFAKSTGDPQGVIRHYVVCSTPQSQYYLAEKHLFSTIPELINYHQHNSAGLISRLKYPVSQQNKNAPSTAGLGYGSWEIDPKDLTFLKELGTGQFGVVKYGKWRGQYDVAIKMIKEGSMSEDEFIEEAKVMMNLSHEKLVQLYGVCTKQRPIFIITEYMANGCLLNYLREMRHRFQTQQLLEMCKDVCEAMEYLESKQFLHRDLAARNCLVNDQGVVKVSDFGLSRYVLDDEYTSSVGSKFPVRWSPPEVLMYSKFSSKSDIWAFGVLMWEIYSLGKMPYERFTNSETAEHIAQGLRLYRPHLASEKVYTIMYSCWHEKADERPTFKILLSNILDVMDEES

Structures are written as SMILES.

This experiment addresses Tyrosine-protein kinase BTK (Homo sapiens, UniProt Q06187). As to the kind of experiment: Irreversible inhibition of recombinant full length His-tagged human BTK expressed in baculovirus expression system using poly (4:1 Glu, Tyr) as substrate preincubated for 2 to 60 mins followed by substrate addition measured after 1 hr by ADP-glo assay. In general terms: ADP-Glo turns the ADP formed in a reaction into a luminescent signal.

As for `C=CC(=O)Nc1cc(-n2c(=O)ccc3cnc4ccc(-c5ccc(NS(C)(=O)=O)cc5)cc4c32)ccc1C`, the Ki came to 3.2 nM.
